We go through two substances from US20230060715A1, “USE OF FXR AGONISTS FOR TREATING AN INFECTION BY HEPATITIS D VIRUS” (INSERM (INSTITUT NATIONAL DE LA SANTÉ ET DE LA RECHERCHE …, priority 2020, published 2023).

The subject of test [1] is HDV. Kind of test: HDV replication in HBV-infected dHepaRG super-infected with HDV (intracellular HDV RNA, RT-qPCR). The class given is cell-based, Hepatitis D virus. The note with it: 1000 IU/mL, 7 days treatment, superinfected dHepaRG.
Test [2] concerns HDV. Kind of test: Secretion of HDV RNA from HBV/HDV coinfected dHepaRG cells (RT-qPCR of concentrated supernatants). The settings on record: interferon 1000 IU/mL for 10 days.
For test [3], the system named is HDV. Kind of test: HDV replication in HBV/HDV coinfected dHepaRG cells (intracellular HDV RNA, RT-qPCR). The format is cell-based, Hepatitis D virus. The note with it: 1000 IU/mL, treated day 3 to 13 post-infection. The text has this: FIG. 1. FXRα agonist inhibits HDV replication in HBV-HDV coinfected dHepaRG cells. […] Cells and supernatants were harvested at day 13 for intracellular HBV and HDV RNA and secreted antigens quantification. Results are the mean+/−SD of two experiments performed with three biological replicates.
The inventors first evaluated the impact of FXRα agonists on HDV replication in in vitro coinfected dHepaRG cells. […] . At day 13 post-infection, cells and supernatants were collected. The intracellular amounts of HDV and HBV RNAs were quantified as well as secreted HBe and HBs antigens.
The HepaRG cell line derived from a human cellular hepato carcinoma can differentiate and regain many phenotypic traits of hepatocytes after 4 weeks of culture under defined conditions^1. HepaRG cells were cultured, differentiated, and infected by HBV and HDV as previously described^2,3. Briefly, for differentiation, cells were maintained for 2 weeks in standard medium then for at least 2 weeks in standard medium supplemented with 1.8% DMSO The composition of standard medium was the following: William's E medium supplemented with 10% HyCLone FetalClone II serum (Thermo Fisher Scientific), penicillin/streptomycin, L-glutamine, Insulin-Transferrin-Selenium (Gibco) and 50 μM hydrocortisone hemisuccinate. […]

In test [4] the test system is HDV. Kind of test: HDV replication in HBV-infected PHH super-infected with HDV (intracellular HDV RNA, RT-qPCR). The class given is cell-based, Hepatitis D virus. The note with it: 1000 IU/mL, 7 days treatment, superinfected PHH.
Another test relates to HDV particles. Kind of test: Specific infectivity of secreted HDV particles on naïve Huh7.5-NTCP cells. The settings on record: 6 days post infection.
Test [5] has as its system HDV. The settings on record: HDV patients, subcutaneous injection, often with a nucleoside analogue; cited from earlier work.

On to “interferon α-2a: Interferon alpha-2 (ROFERON-A) purchased from Roche”, for which the “decrease of total intracellular HDV RNA (compared with GW4064)” value in the test with HDV [1] and in the test with HDV [4] was “comparable” in each case. Further, the “decrease of secreted HDV RNA” value in the test on HDV [2] is given as 50%. In the test on HDV [3], the “decrease of total intracellular HDV RNA (compared with GW4064 10 μM)” value is listed as “comparable”. Besides, in the test with HDV particles (Huh7.5-NTCP infected with supernatants of treated dHepaRG), the “intracellular HDV RNA levels with inoculum 100 versus 500 vge/cell” value is on record as “dose dependent increase”. The “decrease of intracellular HDV RNA in cells infected with supernatants of treated dHepaRG” value in the test with HDV particles (producer cells treated with interferon 1000 IU/mL, Huh7.5-NTCP infected with 500 vge/cell) is recorded as 70%.
For “PEG-IFN-α2a: Pegylated-interferon-alpha-2a, a non-specific immune-stimulator”, in the test on HDV [5], the “response rate on treatment” value is recorded as “about 25%”.
